In US20260375151A1, “KETOREDUCTASE MUTANT AND USE THEREOF” (SOUTH CHINA UNIVERSITY OF TECHNOLOGY, priority 2023, published 2026) one finds Km, kcat and kcat/Km data, which are given here for one substance.

This data set has as its system T1, CC(C)C(=O)CC[C@@H](C)[C@H]1CCC2C3C(CC[C@@]21C)[C@@]1(C)CC[C@@H](O)C[C@@H]1C[C@H]3O.
T1 construct: substrate 1a with NADH
Briefly: Enzyme activity assay of purified Y199A/N149L mutant (change in absorbance at 340 nm, NADH). In kind it is biochemical, Novosphingobium aromaticivorans. Conditions: other: role: substrate, 1 mM NADH, 0.5 μM purified enzyme, 100 mM PBS pH 7.2. The protocol:
The collected wet cells were resuspended in a reaction buffer in a ratio of 1 g wet cells to 15 mL of reaction buffer. The cells were lysed by ultrasonication in an ice bath using cycles of turn-on for 1 s and turn-off for 2 s for a total duration of 45 min. The lysate was centrifuged at 12,000 rpm and 4 °C for 15 min, and the supernatant was filtered through a 0.22 μm membrane for subsequent purification. The purification was performed by Ni-NTA affinity chromatography using a 5 mL of pre-packed column. The entire purification system was first equilibrated with an equilibration buffer, and the sample was loaded at a flow rate of 1 mL/min. Unbound impurity proteins were further removed with the equilibration buffer, and gradient elution was performed by using an elution buffer (500 mM NaCl, and 500 mM imidazole). A target protein was eluted at approximately 150 mM imidazole. The target protein was collected, and concentrated and desalted by using an ultrafiltration tube (50 kDa cutoff) to a final volume of 1 mL. A protein solution was aliquoted and stored at −80 °C for further use.
Therefore, the activity of the mutant was evaluated by monitoring the change in absorbance at 340 nm during the reaction. Specifically, the reaction was performed in a 250 μL reaction system containing 100 mM PBS buffer (pH 7.2), 0.5 μM purified enzyme, 0.5 mM substrate 1a, and 1 mM NADH. The change in absorbance was monitored over 5 min. At the end of the reaction, an equal volume of ethyl acetate was immediately added to extract the product. The extraction was repeated three times, and organic phases were combined and then evaporated under a nitrogen evaporator. The residue was redissolved in an equal volume of methanol. A sample was prepared by filtration through a 0.22 μm membrane, and the formation of product was detected by HPLC.

As usually defined, the Km is the substrate concentration at which the rate is half of its maximum. As usually defined, the kcat is the maximal rate divided by the concentration of active sites. For orientation: kcat/Km means the turnover number divided by the Michaelis constant. Consider “Novosphingobium aromaticivorans ketoreductase (NaKRED) mutant Y199A/N149L (parent SEQ ID NO. 2) (Novosphingobium aromaticivorans DSM 12444; E216K/G141A/I221V/N149L/Y199A)”, for which the Km stood at 147.0 ± 27.3 µM, the kcat was determined as 2.115 ± 0.473 s⁻¹ and the kcat/Km was determined as 14300 M⁻¹ s⁻¹.
